Measured values as given in PubChem BioAssay AID588358 (NMMLSC, 2011).
The entries are a selection whose mix differs from that of the whole data set. Activity calls are given as the source filed them.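 Rule for the calls: active = binding more than 3 SD below its plate's average and above zero; inconclusive = below that plate limit but binding exactly zero; inactive = the rest.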

Chains of the proteins cited; added tags and fusions are not shown. Lines headed by an entry give the natural chain unless they say otherwise; changes in a name come on top.
UniProt P32926: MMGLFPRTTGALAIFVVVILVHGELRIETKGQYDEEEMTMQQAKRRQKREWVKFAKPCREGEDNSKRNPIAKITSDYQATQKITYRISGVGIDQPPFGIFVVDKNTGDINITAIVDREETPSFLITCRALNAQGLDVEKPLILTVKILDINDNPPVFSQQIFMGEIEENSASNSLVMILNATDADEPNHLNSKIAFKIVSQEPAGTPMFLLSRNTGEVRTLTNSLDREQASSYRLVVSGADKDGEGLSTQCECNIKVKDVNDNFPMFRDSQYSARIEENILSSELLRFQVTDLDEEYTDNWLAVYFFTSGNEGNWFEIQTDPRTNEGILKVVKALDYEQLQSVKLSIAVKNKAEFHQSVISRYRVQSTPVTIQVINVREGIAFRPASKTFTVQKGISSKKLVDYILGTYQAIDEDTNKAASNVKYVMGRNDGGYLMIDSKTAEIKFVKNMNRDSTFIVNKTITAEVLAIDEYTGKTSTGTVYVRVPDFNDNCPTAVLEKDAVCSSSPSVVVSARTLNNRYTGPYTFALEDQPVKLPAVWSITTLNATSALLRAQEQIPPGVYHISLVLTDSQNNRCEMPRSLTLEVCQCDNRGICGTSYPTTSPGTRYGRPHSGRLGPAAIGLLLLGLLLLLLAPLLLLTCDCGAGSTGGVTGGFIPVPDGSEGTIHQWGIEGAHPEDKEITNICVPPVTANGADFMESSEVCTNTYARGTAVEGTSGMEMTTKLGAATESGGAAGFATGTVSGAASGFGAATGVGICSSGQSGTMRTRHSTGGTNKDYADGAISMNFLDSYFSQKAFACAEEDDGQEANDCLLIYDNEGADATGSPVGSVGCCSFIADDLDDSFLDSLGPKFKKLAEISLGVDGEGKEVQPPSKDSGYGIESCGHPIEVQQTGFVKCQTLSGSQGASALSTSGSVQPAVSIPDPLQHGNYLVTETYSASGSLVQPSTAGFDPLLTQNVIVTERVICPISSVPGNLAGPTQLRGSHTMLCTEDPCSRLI

target: Desmoglein-3 (Homo sapiens) (UniProt P32926); assay: blockers of anti-DSG3 scFv binding – biochemical, bead-based, flow cytometry, scFv-GFP, primary screen (AID 588358); conditions: DSG3-coupled beads, at 10 µM, hits give low values;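 note: hits lower antibody fragment binding to DSG3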

SMILES	binding (percent of control)
O=P1(N(CCCl)CCCl)OCCCS1 (configuration not stated)	inactive: 110%
O=C(Nc1cc([As](=O)(O)O)ccc1O)c1ccccc1	inactive: 91.7%
Nc1ccc([As](=O)(O)c2ccc(N)cc2)cc1	inactive: 106%
C[N+]1=C2C=CC=CC=C2SC12C([N+](=O)[O-])=CC([N+](=O)[O-])=C[C-]2[N+](=O)[O-] (configuration not stated)	inactive: 87.1%
CCN(/C(=N/P(=O)(N1CCOCC1)N1CCOCC1)N1CCOCC1)c1ccc(OC)cc1	inactive: 85.9%
CC(C)c1nc(Nc2ccccc2)n(P(=O)(N(C)C)N(C)C)n1	inactive: 101%
CC(C)=N/N=C(\N)N[N+](=O)[O-]	inactive: 97.7%
CN(C)C(=O)OCCc1n(C)cc[n+]1C	inactive: 99.8%
CC1CCN(C(=O)Oc2c(Cl)cc(Cl)c3cccnc23)CC1	inactive: 108%
c1cc(-c2nn[nH]n2)ccc1-c1nn[nH]n1	inactive: 111%
COc1ccc(C2=NCC(CBr)S2)cc1 (configuration not stated)	inactive: 110%
O=[N+]([O-])c1cccc2n[nH]nc12	inactive: 98.5%
CC(=O)N1C2C3N(C(C)=O)C1C1N(C(C)=O)C(C(N1C(C)=O)N3C(C)=O)N2C(C)=O	inactive: 104%
Cc1ccc(NP(=O)(Oc2ccccc2)Oc2ccccc2)nc1	inactive: 93.5%
CCc1nc2c(n1)c1c(non1O)c1c2no[n+]1[O-]	inactive: 105%
O=[N+]([O-])c1cc([N+](=O)[O-])c(CCNc2ccccc2)c([N+](=O)[O-])c1	inactive: 95.6%
CC(C)C(=O)NC(Sc1ccccc1)C(Cl)(Cl)Cl (configuration not stated)	inactive: 98.4%
O=P(Nc1nccs1)(c1ccccc1)c1ccccc1	inactive: 104%
c1nnnn1CCn1cnnn1	inactive: 97%
O=[N+]([O-])c1ccc(O)c(/C=N/Nc2ccc([N+](=O)[O-])cc2[N+](=O)[O-])c1	inactive: 116%
CC(=O)NC(SC(=S)N(C)C)C(Cl)(Cl)Cl (configuration not stated)	inactive: 103%
O=[N+]([O-])c1ncn(CCn2cnc([N+](=O)[O-])n2)n1	inactive: 97.3%
O=[As](O)(c1ccccc1)c1ccc(O)cc1	inactive: 96%
C(Cc1nn[nH]n1)Cc1nn[nH]n1	inactive: 84.3%
Nc1ccc([As](=O)(O)c2ccc([N+](=O)[O-])cc2)cc1	inactive: 104%
COc1ccc(N)c([N+](=O)[O-])c1[N+](=O)[O-]	inactive: 115%

SMILES	binding (percent of control)
O=P(Nc1ccccn1)(c1ccc(Br)cc1)c1ccc(Br)cc1	inactive: 113%
CN(C)C1(CNC(=O)c2ccc(Cl)c(S(N)(=O)=O)c2)CCCCC1	inactive: 104%
O=P(Nc1nc2ccccc2s1)(c1ccccc1)c1ccccc1	inactive: 98.4%
C[C@H]1OP(=O)(Oc2ccccc2)[C@H](O)[C@H](O)[C@H]1N=[N+]=[N-] (some centres not stated)	inactive: 110%
COC(=O)c1cc2c(s1)N=C(c1ccccc1)N(C)P2(=O)N1CCOCC1 (configuration not stated)	inactive: 102%
CC(=O)NC(SC(=S)N(CC(C)C)CC(C)C)C(Cl)(Cl)Cl (configuration not stated)	inactive: 97.4%
Cc1ccc(OP(=O)(Nc2ccccn2)Oc2ccc(C)cc2)cc1	inactive: 108%
O=C(OC1CN2CCC1CC2)c1ccccc1 (configuration not stated)	inactive: 88.2%
CCC(=O)N1C2C3N(C(=O)CC)C1C1N(C(=O)CC)C(C(N1C(=O)CC)N3C(=O)CC)N2C(=O)CC	inactive: 109%
CC(NC(=O)COC(=O)C(O)(c1ccccc1)c1ccccc1)c1ccccc1 (configuration not stated)	inactive: 104%
O=c1c2cc([N+](=O)[O-])ccc2[nH]c2c([N+](=O)[O-])cc([N+](=O)[O-])cc12	inactive: 75.7%
CN(C)C(=O)Oc1noc2ccccc12	inactive: 102%
CCNC(=S)/N=C(\N)N[N+](=O)[O-]	inactive: 102%
O=C(NC1CCS(=O)(=O)C1)NP(=S)(Oc1ccccc1)Oc1ccccc1 (configuration not stated)	inactive: 96.2%
Cc1ccc(NP(=O)(Oc2cccc(C)c2)Oc2cccc(C)c2)nc1	inactive: 94.7%
O=P1(N(CCCl)CCCl)OCCC2CCCCN21 (configuration not stated)	inactive: 115%
CC(=O)c1ccc(N2CC2c2ccncc2)cc1 (configuration not stated)	inactive: 94.8%
COC(=O)C1(C)COP(=O)(NCc2ccccc2)OC1 (configuration not stated)	inactive: 87.6%
Cc1ccccc1CN(C)C(=O)COC(=O)C(O)(c1ccccc1)c1ccccc1	inactive: 100%
C[C@H]1OP(=O)(Oc2ccccc2)C[C@@H]2O[C@@H]21 (some centres not stated)	inactive: 98.6%
C[C@@H]1C=CCP(=O)(Oc2ccccc2)O1 (some centres not stated)	inactive: 102%
CC(=O)Nc1ccc([As](=O)(O)O)c(O)c1	inactive: 101%
CC(=O)Nc1ccc(Oc2c([N+](=O)[O-])cc([N+](=O)[O-])cc2[N+](=O)[O-])cc1	inactive: 102%
CCOc1ccc(C2=NCC(CBr)S2)cc1 (configuration not stated)	inactive: 99.1%
CCc1cc(O)c([N+](=O)[O-])c(C)c1[N+](=O)[O-]	inactive: 90.7%
CC(C)(C)C(=O)NC(Sc1ccccc1)C(Cl)(Cl)Cl (configuration not stated)	inactive: 98.2%
